According to patent US20200038438A1, “ANGSTROM SILVER INJECTION FOR CANCER INHIBITION, PREPARATION METHOD AND APPLICATION THEREOF” (Shenzhen AMCAN Medical Biotechnology Limited, priority 2018, published 2020):

Experiments:
[1] = system: human non-small cell lung cancer cells A549; assay: CellTiter-Glo cell viability, 72 hours; assay type: cell-based; details: A549, 1000 nM, duplicate wells
Excerpt: (§1) A first exemplary embodiment is shown a detection of the angstrom silver on a proliferation influence of human non-small cell lung cancer cells A549 and human hepatocellular carcinoma cells HepG2.
(§2) Reagents and consumables shown below: 1. HepG2, provided by HD Biosciences (Shanghai) Co., Ltd., and passed a mycoplasma detection; 2, F 12K culture medium, American Gibco, Art. No.: 21127-022; 3. EMEM culture medium, American ATCC, Art. No.: 30-2003; 4. Fetal bovine serum (FBS), American Hyclone, Art. No.: CH30160.03; 5. Penicillin-streptomycin liquid, American Invitrogen, Art. No.: CH15140-122; 6. […] Plate reader, American Perkin Elmer, EnVision Multilabel Plate Reader. […]
(§3) 3. […] At this time, the gradient concentration of a compound to be measured includes 150 ppm, 15 ppm, 1.5 ppm, 0.15 ppm and 0.015 ppm, which is a 2-by-compound solution to be used to treat cells.
(§4) 4. […] At this time, the gradient concentration of the compound to be measured includes 2 μM, 200 nM, 20 nM, 2 nM and 0.2 nM, which is a 2-by-compound solution to be used to treat cells. […]
(§5) 5. Placing the 96-well cell culture plate in a plate reader to analyze it, and setting it to read chemical luminescence and record data.
(§6) Readout in each hole needs to be converted to a cell viability. The cell viability can be calculated by the following formula: […]

[2] = system: human hepatocellular carcinoma cells HepG2; assay: CellTiter-Glo cell viability, 72 hours; assay type: cell-based; details: HepG2, 10 nM, duplicate wells
Excerpt: as §1, §2, §3, §4, §5, §6

With CN[C@@H]1C[C@H]2O[C@@](C)([C@@H]1OC)n1c3ccccc3c3c4c(c5c6ccccc6n2c5c31)C(=O)NC4 [STSP] the “Percentage of cell growth” value [1] was 11.3% and the “Percentage of cell growth” value [2] was 81.7%.
